Earlier results, collected in PMC4955735 (Anesthesiology, 2016).

Details: indicator complex of the competition assay; cited from earlier work

## C[C@]12N3Cc4c(c(OCCCS(=O)(=O)[O-])c5ccccc5c4OCCCS(=O)(=O)[O-])CN1C(=O)N1CN4C(=O)N5CN6C(=O)N7CN8C(=O)N9Cc%10c(c(OCCCS(=O)(=O)[O-])c%11ccccc%11c%10OCCCS(=O)(=O)[O-])CN%10C(=O)N(CN%11C(=O)N(CN%12C(=O)N(CN(C3=O)[C@]12C)[C@@H]4[C@H]%125)[C@@H]6[C@H]%117)[C@]8(C)[C@@]9%10C.[Na+].[Na+].[Na+].[Na+] [Calabadion 2]
  Ka of calabadion 2•Rhodamine 6G complex: 2.3 ± 0.2 x 10^6 M^−1
